## scFv variants of Ab-95 (light chain) against a SARS-CoV-2 spike peptide

Target: peptide PDVDLGDISGINAS, taken from heptad repeat 2 (HR2) of SARS-CoV-2 spike.

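The starting antibody came from a phage panning campaign against this peptide. AAYL52 was designed without a model: most single CDR substitutions and a random sample of double and triple ones. The assay is AlphaSeq: two haploid yeast populations carry antibody and antigen on their surface. Mating (16 h, 30 °C) was followed by selection of diploids and sequencing of their barcodes. A regression on co-assayed BCL2-family reference pairs converts the normalised counts of each replicate to an apparent Kd. There are three technical replicates.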

The variants keep the heavy chain, the linker and the frameworks of Ab-95 (scFv order VH, the linker GGGGSGGGGSGGGGS, VL).
VH: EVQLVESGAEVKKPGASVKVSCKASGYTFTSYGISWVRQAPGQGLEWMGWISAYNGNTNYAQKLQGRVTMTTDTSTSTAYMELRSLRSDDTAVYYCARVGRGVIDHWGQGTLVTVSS
VL: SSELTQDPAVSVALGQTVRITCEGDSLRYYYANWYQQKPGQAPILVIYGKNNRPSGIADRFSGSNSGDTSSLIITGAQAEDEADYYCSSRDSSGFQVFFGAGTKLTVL

Each variant is given by its three light chain CDRs, as the data file delimits them; those of the parent are EGDSLRYYYAN, GKNNRPS, SSRDSSGFQVF. Values are apparent Kd, the geometric mean of the replicates that gave a signal; lower means stronger binding. "no signal" marks a missing value. The strain was present, yet no cells mated with the target were sequenced in any replicate, which points to weak or no binding.

CDR-L1 | CDR-L2 | CDR-L3 | Kd (apparent) | seen in
EGDSLRYYYAN | GKNKRPS | SSRDSLGFQQF | 2.3 µM | 2/3
EGDSLRYYYKN | GKNNRPS | SSVASSGFQVF | 22 µM | 2/3
EGDSLRYYNAN | GKKNRPS | SSRDSSPFQVF | 260 nM | 3/3
EGDSLRYYSIN | GKNNRPS | SSRDSCGFQVF | 170 nM | 3/3
EGDSLRYYYAN | PKNNRNS | SSRDSSGFQPF | no signal | 0/3
EGDSLRYYYAN | LKNNRPV | SSRDSSGFQVF | 51 µM | 2/3
EGDSLRYYYVN | GKNNRPS | SSWDSSLFQVF | 1.7 µM | 1/3
EWCSLRIYYAN | GKNNRPS | SSRDSSGFQVF | no signal | 0/3
EGDSLRYYYAV | GKNNRTS | SSRDSSGFQVP | 4.6 µM | 2/3
EGDSLRYFYAN | RKNNRPS | SSRDSSVFQVF | 26 µM | 2/3
HGDSLRYYYAN | GKQNRPI | SSRDSSGFQVF | 340 nM | 3/3
EGDSLRYYYAN | GKNLRTS | SSRDSSGFTVF | no signal | 0/3
EGDLLRYYYAN | GKNNRPS | GSRVSSGFQVF | 7.2 µM | 2/3
EGDSLRYYYAG | GKNNRPS | SSSDCSGFQVF | 130 µM | 1/3
EGDSLRYYYDN | GKNNRPC | SSRYSSGFQVF | 13 µM | 2/3
EGDSLRYYYAN | GKNNRPS | GSRDFIGFQVF | 240 nM | 3/3
EGDSLRYPYAN | GKNHRPS | SSRDSSSFQVF | 14 µM | 3/3
DGDQLAYYYAN | GKNNRPS | SSRDSSGFQVF | 95 µM | 2/3
EGDSLRYYNAN | GRNNRMS | SSRDSSGFQVF | 14 nM | 3/3
EGDSLRYYYAS | MKNNRPS | SSRDSSGFQVF | 3.2 µM | 1/3
EGDSLRYYYAN | GKNNRPS | SSRDSSHVQVT | 1.0 µM | 2/3
EGHSLRYYYAN | GKNRRPS | SSRDSSGFQGF | 38 µM | 2/3
EGWSLRYYYAN | GKNLRPK | SSRDSSGFQVF | 14 µM | 2/3
EGTSLRYYYAN | GKNNRPS | SSADSSGFQVF | 2.6 µM | 1/3
EGDSHRYYYAN | GKNNRPS | SPRDSSVFQVF | no signal | 0/3
EGDSLRYYYEN | GKNNRPS | VSRDSIGFQVF | 150 µM | 1/3
EGDSLRYYYAN | GCNNRPS | SSRDGSPFQVF | 8.7 µM | 2/3
EGDSLRYYYAE | GKGNRPS | SSRDSSGFQVQ | 86 µM | 1/3
EGRSLRYYYAN | GKNNRPS | YSRDSSGFFVF | 2.3 µM | 2/3
EGDSLRYYYAN | GKNNSPS | SSRDSSGMLVF | 4.9 µM | 3/3
EGDGNRYYYAN | GKNNRPS | SSRDSSGFPVF | 1.7 µM | 3/3
EGESLRYYYAN | GKNNRRS | SSYDSSGFQVF | 14 µM | 3/3
EGWSLRYYYAN | GKNNDPS | SSRDSSGMQVF | 16 µM | 2/3
EGDSDRYYYAN | GKNNRPS | YSRDSLGFQVF | 4.2 µM | 2/3
EKDSLRYCYAN | GKNNKPS | SSRDSSGFQVF | no signal | 0/3
EGDSDRYYYAN | GKNNRPS | SSRDDSGFQVF | 2.4 µM | 3/3
EGDSLSYCYAN | GKCNRPS | SSRDSSGFQVF | no signal | 0/3
EGDSLRYYYAN | GKNNRPS | ISRDPSGFQSF | 28 µM | 2/3

Second part, the sequence after the result:

Kd (apparent) | seen in | CDR-L1 | CDR-L2 | CDR-L3
3.1 µM | 2/3 | EGDSLRHYYHN | GKNNRPT | SSRDSSGFQVF
6.8 nM | 3/3 | EGDELRYNYAN | GKNNRPS | SSRDRSGFQVF
18 µM | 2/3 | EEDSLRYYYAN | GKNNRPS | SQRDSSGFIVF
no signal | 0/3 | EQDSLRYYYAN | GKNNRPS | RSRDSSGFQVF
260 nM | 3/3 | EMDSLRYYYAN | GKNNRPS | SSRDKAGFQVF
no signal | 0/3 | EQDSLRYYYAN | GKNNRPS | SPRPSSGFQVF
no signal | 0/3 | DGDSLRYYYAN | GKNNRPS | PSRDSSGFQVM
1.1 µM | 2/3 | EGDSLRYYQCN | GKNNRPS | SSRWSSGFQVF
550 nM | 3/3 | EGDSLRYYYAN | GNNNRPS | SSRDSSGSSVF
no signal | 0/3 | EIDSRRYYYAN | GKNNRCS | SSRDSSGFQVF
5.7 µM | 1/3 | EGDSLRYIYAN | SKNNRPS | SSRDSHGFQVF
2.8 µM | 3/3 | EGDSLRYYYAN | GKNNRPS | SSRDIVGFQVL
8.1 µM | 1/3 | EGDSLRYYYAN | GKQNRPS | SIRDSSGFQVR
330 nM | 3/3 | EGDSLRYYYAN | GKNDRPS | SSRDSSNFQVF
900 nM | 3/3 | WGDVLRYVYAN | GKNNRPS | SSRDSSGFQVF
300 nM | 3/3 | EGDQLRPYYAN | GENNRPS | SSRDSSGFQVF
no signal | 0/3 | EGDSLRYYYSN | GKNNRPS | SENDSSGFQVF
640 nM | 3/3 | EGDSLRLYYAN | GKNNRPS | SSPDSSGFQVW
11 µM | 2/3 | EGDSLRYYYAN | RINARPS | SSRDSSGFQVF
9.1 µM | 2/3 | EGDSLRYYYAN | GKNNRPS | FSDRSSGFQVF
19 µM | 2/3 | EGDSLLYYYAN | GKNNWPS | SSRDSSQFQVF
500 nM | 3/3 | EGDSLLYYTAL | GKNNRPS | SSRDSSGFQVF
1.5 µM | 2/3 | EGFSLRYYYAN | GKNNRPS | SIRDSSGFQVV
96 nM | 3/3 | EGDSLRRYCAN | GKNNRPV | SSRDSSGFQVF
11 µM | 1/3 | EGDSLRYYYAN | GKNNRPS | SSRDSSGSQVC
780 nM | 3/3 | EGDSLRYYYNN | GKNNRPM | SSRDSSGFQVF
no signal | 0/3 | EGCSLRYYYAN | GKNLRPA | SSRDSSGFQVF
11 µM | 2/3 | EGSSLRYYLAN | GKNNRPS | SSSDSSGFQVF
no signal | 0/3 | EGDSLRYYYAN | GKNNRSH | SSRLSSGFQVF
7.4 µM | 2/3 | EWDSLRYYYAN | GKNNRDS | SSRDSSGFQVF
2.2 µM | 3/3 | EGDSLRYYQAN | GKNNRDS | SSRDSEGFQVF
5.1 µM | 1/3 | EGDSLRYYYAN | IKNNRPS | SGRDSSTFQVF
no signal | 0/3 | ELDSLRYYYAN | GKNNRPS | SSRDQSEFQVF
39 µM | 3/3 | EGDSLRYYYAN | GRNNRCS | SSRDSMGFQVF
4.7 µM | 3/3 | EGDSLRYYYAN | GKNFRPS | SSRDSWGFQVF
51 µM | 2/3 | EGDSLRYYYLN | GKNNRPE | SSRDSSGFQVY
26 µM | 2/3 | EGDVLRYYYAN | GKGNRPS | SSRLSSGFQVF
170 nM | 3/3 | EGDSLRAYYAN | GKNLRPS | SSKDSSGFQVF
27 µM | 2/3 | EGDSLRVYYAN | GKNNRPV | ISRDSSGFQVF

Excerpt, the first 13 entries:

{"CDR-L1": "EGDSLRYYYAN", "CDR-L2": "GKNKRPS", "CDR-L3": "SSRDSLGFQQF", "Kd (apparent)": "2.3 µM", "seen in": "2/3"}
{"CDR-L1": "EGDSLRYYYKN", "CDR-L2": "GKNNRPS", "CDR-L3": "SSVASSGFQVF", "Kd (apparent)": "22 µM", "seen in": "2/3"}
{"CDR-L1": "EGDSLRYYNAN", "CDR-L2": "GKKNRPS", "CDR-L3": "SSRDSSPFQVF", "Kd (apparent)": "260 nM", "seen in": "3/3"}
{"CDR-L1": "EGDSLRYYSIN", "CDR-L2": "GKNNRPS", "CDR-L3": "SSRDSCGFQVF", "Kd (apparent)": "170 nM", "seen in": "3/3"}
{"CDR-L1": "EGDSLRYYYAN", "CDR-L2": "PKNNRNS", "CDR-L3": "SSRDSSGFQPF", "Kd (apparent)": "no signal", "seen in": "0/3"}
{"CDR-L1": "EGDSLRYYYAN", "CDR-L2": "LKNNRPV", "CDR-L3": "SSRDSSGFQVF", "Kd (apparent)": "51 µM", "seen in": "2/3"}
{"CDR-L1": "EGDSLRYYYVN", "CDR-L2": "GKNNRPS", "CDR-L3": "SSWDSSLFQVF", "Kd (apparent)": "1.7 µM", "seen in": "1/3"}
{"CDR-L1": "EWCSLRIYYAN", "CDR-L2": "GKNNRPS", "CDR-L3": "SSRDSSGFQVF", "Kd (apparent)": "no signal", "seen in": "0/3"}
{"CDR-L1": "EGDSLRYYYAV", "CDR-L2": "GKNNRTS", "CDR-L3": "SSRDSSGFQVP", "Kd (apparent)": "4.6 µM", "seen in": "2/3"}
{"CDR-L1": "EGDSLRYFYAN", "CDR-L2": "RKNNRPS", "CDR-L3": "SSRDSSVFQVF", "Kd (apparent)": "26 µM", "seen in": "2/3"}
{"CDR-L1": "HGDSLRYYYAN", "CDR-L2": "GKQNRPI", "CDR-L3": "SSRDSSGFQVF", "Kd (apparent)": "340 nM", "seen in": "3/3"}
{"CDR-L1": "EGDSLRYYYAN", "CDR-L2": "GKNLRTS", "CDR-L3": "SSRDSSGFTVF", "Kd (apparent)": "no signal", "seen in": "0/3"}
{"CDR-L1": "EGDLLRYYYAN", "CDR-L2": "GKNNRPS", "CDR-L3": "GSRVSSGFQVF", "Kd (apparent)": "7.2 µM", "seen in": "2/3"}

Nonspecific signal, from three strains lacking the peptide, appeared in 28% of pairings of library AAYL52, centred on 8.2 µM (5% of these signals below 800 nM); values are not corrected for it.

Values reported by Engelhart et al. 2022, doi:10.1038/s41597-022-01779-4 (FLAb copy).